These are literature values, as cited in patent US20090220516A1, “Neuroprotection of retinal ganglion cells” (priority 2005, published 2009).

Chains of the proteins cited; added tags and fusions are not shown. Lines headed by an entry give the natural chain unless they say otherwise; changes in a name come on top.
UniProt P25099, whole entry: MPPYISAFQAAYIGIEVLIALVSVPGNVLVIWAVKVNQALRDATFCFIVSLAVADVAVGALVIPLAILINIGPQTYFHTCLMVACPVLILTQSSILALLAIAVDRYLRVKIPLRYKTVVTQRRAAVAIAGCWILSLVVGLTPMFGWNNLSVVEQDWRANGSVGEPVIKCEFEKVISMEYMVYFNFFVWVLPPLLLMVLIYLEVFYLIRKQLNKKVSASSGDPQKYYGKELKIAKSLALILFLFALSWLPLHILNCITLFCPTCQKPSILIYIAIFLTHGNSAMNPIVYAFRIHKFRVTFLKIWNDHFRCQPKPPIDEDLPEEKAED
UniProt P30543, whole entry: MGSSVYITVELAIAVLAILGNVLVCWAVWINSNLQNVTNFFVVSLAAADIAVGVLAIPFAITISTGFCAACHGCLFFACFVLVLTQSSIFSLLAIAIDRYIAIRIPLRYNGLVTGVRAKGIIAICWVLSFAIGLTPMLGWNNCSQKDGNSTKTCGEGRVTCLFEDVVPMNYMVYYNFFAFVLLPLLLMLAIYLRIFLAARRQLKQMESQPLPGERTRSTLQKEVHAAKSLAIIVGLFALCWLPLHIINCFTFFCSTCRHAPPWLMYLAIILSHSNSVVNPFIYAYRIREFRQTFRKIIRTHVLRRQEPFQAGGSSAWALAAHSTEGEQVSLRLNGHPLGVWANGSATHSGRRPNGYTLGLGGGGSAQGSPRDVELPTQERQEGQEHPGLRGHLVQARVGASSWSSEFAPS

Each structure is given as a SMILES string.

One data set deals with A1 receptor (Rattus norvegicus, UniProt P25099). The note with it: read-out: binding displacement; cited from earlier work.
In the next data set the target is A2A receptor (Rattus norvegicus, UniProt P30543). The note with it: read-out: binding displacement; cited from earlier work.

Consider `CNC(=O)C1OC(n2cnc3c(NCc4cccc(I)c4)nc(Cl)nc32)C(O)C1O` (stereo not shown) [CI-IB-MECA, 2-chloro-N6-(3-iodobenzyl)-adenosine-5-N-methyluronamide], for which the results for the Ki on A1 receptor and at A2A receptor were 820 nM and 420 nM, respectively.
`CNC(=O)[C@H]1O[C@@H](n2cnc3c(NCc4cccc(I)c4)ncnc32)[C@H](O)[C@@H]1O` [IB-MECA]: the Ki on A1 receptor was 54 nM; at A2A receptor it was 56 nM.
